According to US12247004B2, “2-amino-N-(amino-oxo-aryl-lambda6-sulfanylidene)acetamide compounds and their therapeutic use” (Oxford Drug Design Limited, priority 2019, dated 2025):

System: bacteria (ATCC reference strains)
Test: Antibacterial activity, MIC by broth micro-dilution (CLSI)
[1] = Acinetobacter baumannii, read-out: Antibacterial Activity (MIC), E = A. baumannii B1931
[2] = Enterobacter cloacae, read-out: Antibacterial Activity (MIC), B = Enterobacter cloacae B1966
[3] = Escherichia coli, ATCC25922, read-out: Antibacterial Activity (MIC), A = E. coli ATCC 25922
[4] = Haemophilus influenzae, ATCC49247, read-out: Antibacterial Activity (MIC), F = H. influenzae ATCC 49247
[5] = Klebsiella pneumoniae, ATCC700603, read-out: Antibacterial Activity (MIC), C = K. pneumoniae ATCC 700603
[6] = Pseudomonas aeruginosa, ATCC27853, read-out: Antibacterial Activity (MIC), D = P. aeruginosa ATCC 27853

Compound | MIC [1] [µg/mL] | MIC [2] [µg/mL] | MIC [3] [µg/mL] | MIC (Escherichia coli, BAA2469, read-out: Antibacterial Activity (MIC), G = E. coli BAA-2469) [µg/mL] | MIC [4] [µg/mL] | MIC [5] [µg/mL] | MIC [6] [µg/mL]
CC(C)C[C@H](N)C(=O)N=[S@](N)(=O)c1cccc(F)c1.Cl [ANASIA-011-1] | 16 | 4 | 0.707 | 2.52 | 2 | 8 | 64
CC(C)C[C@H](N)C(=O)N=[S@@](N)(=O)c1cccc(F)c1.Cl [ANASIA-011-2] | > 64 | > 64 | 64 |  | > 64 | > 64 | > 64
CC(C)C[C@H](N)C(=O)N=S(N)(=O)c1cccc(F)c1 (stereo partly shown) [ANASIA-011] | 16 (≈ 55.7 µM) | 8 (≈ 27.8 µM) | 1 (≈ 3.48 µM) |  | 4 (≈ 13.9 µM) | 8 (≈ 27.8 µM) | 32 (≈ 111 µM)

In brackets after ≈: the same amount, converted by molar mass. Read-outs that look alike come from different tables or passages of the source.
